Assay results: PubChem BioAssay (NCATS)
Several values for one entry are separate records, joined by “and”; a condition that tells them apart may be missing. Equal values may be shown once. This is a selection; strong and weak results do not stand in their true shares. Inconclusive results are not listed. Activity calls are given as the source filed them. Unless noted, the call rests on the fitted dose curve; in most records, active means well fitted curve in the direction sought with a large enough effect; inconclusive means small, poorly fitted or top-dose-only effect, or another doubt; inactive means no such curve, though single readings can be large; an effect the other way counts as inactive or inconclusive.

Sequences of proteins named here, by UniProt entry; tags and fusion partners are left off.
UniProt Q9R1A7, whole entry: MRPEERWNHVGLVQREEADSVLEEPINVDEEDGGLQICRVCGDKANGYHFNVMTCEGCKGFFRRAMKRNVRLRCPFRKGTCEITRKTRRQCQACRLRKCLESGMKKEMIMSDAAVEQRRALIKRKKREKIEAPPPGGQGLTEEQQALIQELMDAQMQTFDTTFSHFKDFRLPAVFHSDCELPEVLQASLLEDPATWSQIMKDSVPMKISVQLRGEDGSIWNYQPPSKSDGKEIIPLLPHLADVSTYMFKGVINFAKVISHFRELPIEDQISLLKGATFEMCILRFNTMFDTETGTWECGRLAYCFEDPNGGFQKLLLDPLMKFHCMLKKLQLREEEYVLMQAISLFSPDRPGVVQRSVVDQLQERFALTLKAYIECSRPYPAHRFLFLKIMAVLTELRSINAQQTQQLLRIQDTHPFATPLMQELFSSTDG

Tests used:
astro = control astrocytes; test: Drug repurposing screens with cells derived from glioblastoma tumor samples (AID 1345199); settings: viability, ATP luminescence, 48 h; at 91.6 µM (top of the series) unless noted; further: on the % scale 0 is the no-effect control and ±100 the full control effect; nearly all actives have a fitted effect of over 40% in size
Summary of the method: (§1)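 Primary testing used CD133+ neurospheres from four GBM patients, seven concentrations, 48 h exposure and ATP-based viability; confirmation added three slower-growing patient lines.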

UISO = test: qHTS assay to identify novel small-molecules to repurpose for Merkel cell carcinoma treatment (AID 1296009); settings: MCC and control cell lines, CellTiter-Glo viability, 72 h; at 92.7 µM (top of the series); further: on the % scale 0 is the no-effect control and ±100 the full control effect; nearly all actives have a fitted effect of over 60% in size
Summary of the method: (§2)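 CellTiter-Glo luminescence after 72 hr compound exposure at 37 degree celsius gave cell viability. Libraries NPC and MIPE were run as 8- and 11-point dose responses; RLUs normalized to DMSO (negative) and no-cell (cytotoxicity) controls.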

WaGa = test: as above; settings: MCC and control cell lines, CellTiter-Glo viability, 72 h; at 92.7 µM (top of the series)
Summary of the method: as §2

C33A = test: Primary qHTS to identify gynecologic anti-cancer compounds using libraries of approved drugs and bioactive compounds (AID 1345084); settings: Gynecologic cancer cell panel viability, ATPlite luminescence, 48 h; at 116 µM (top of the series) unless noted; further: on the % scale 0 is the no-effect control and ±100 the full control effect; nearly all actives have a fitted effect of over 55% in size
Summary of the method: (§3)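 ATP-based viability (ATPlite), 1,000 cells/well, 16 h pre-incubation, 48 h compound at 37 C, 5% CO2, 15 min RT before read.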

CAOV3 = test: as above; settings: Gynecologic cancer cell panel viability, ATPlite luminescence, 48 h; at 116 µM (top of the series)
Summary of the method: as §3

CASKI = test: as above; settings: Gynecologic cancer cell panel viability, ATPlite luminescence, 48 h; at 116 µM (top of the series) unless noted
Summary of the method: as §3

Es-2 = test: as above; settings: Gynecologic cancer cell panel viability, ATPlite luminescence, 48 h; at 116 µM (top of the series) unless noted
Summary of the method: as §3

HeLa = test: as above; settings: Gynecologic cancer cell panel viability, ATPlite luminescence, 48 h; at 116 µM (top of the series) unless noted
Summary of the method: as §3

Hek293T = test: as above; settings: Gynecologic cancer cell panel viability, ATPlite luminescence, 48 h, control line for the selectivity index; at 57.5 µM (top of the series) unless noted
Summary of the method: as §3

JEG-3 = test: as above; settings: Gynecologic cancer cell panel viability, ATPlite luminescence, 48 h; at 116 µM (top of the series) unless noted
Summary of the method: as §3

OV90 = test: as above; settings: Gynecologic cancer cell panel viability, ATPlite luminescence, 48 h; at 57.5 µM (top of the series) unless noted
Summary of the method: as §3

PA-1 = test: as above; settings: Gynecologic cancer cell panel viability, ATPlite luminescence, 48 h; at 116 µM (top of the series) unless noted
Summary of the method: as §3

Tov-21-G = test: as above; settings: Gynecologic cancer cell panel viability, ATPlite luminescence, 48 h; at 116 µM (top of the series) unless noted
Summary of the method: as §3

Tov112D = test: as above; settings: Gynecologic cancer cell panel viability, ATPlite luminescence, 48 h; at 116 µM (top of the series) unless noted
Summary of the method: as §3

[1] = Drug repurposing screens with cells derived from glioblastoma tumor samples (AID 1345199); settings: GBM patient neurospheres viability, ATP luminescence, 48 h; Potency: tumour line A; series mostly up to 99.2 µM; further: on the % scale 0 is the no-effect control and ±100 the full control effect; nearly all actives have a fitted effect of over 40% in size
Summary of the method: as §1

SKOV3 = test: Primary qHTS to identify gynecologic anti-cancer compounds using libraries of approved drugs and bioactive compounds (AID 1345084); settings: Gynecologic cancer cell panel viability, ATPlite luminescence, 48 h; at 57.5 µM (top of the series) unless noted; further: on the % scale 0 is the no-effect control and ±100 the full control effect; nearly all actives have a fitted effect of over 55% in size
Summary of the method: as §3

[2] = target: Nuclear receptor subfamily 1 group I member 2 (Rattus norvegicus) (UniProt Q9R1A7); test: qHTS assay for small molecule activators of the rat pregnane X receptor (rPXR) signaling pathway (AID 651751; call rule not given here; further: 0% is about no effect); settings: rPXR reporter cells, luciferase (One-Glo), 24 h
[3] = qHTS assay for small molecule activators of the human pregnane X receptor (PXR) signaling pathway (AID 720659; call rule not given here; further: 0% is about no effect); settings: DPX-2 HepG2 CYP3A4-luciferase, 24 h; at 92.3 µM (top of the series)

CCC(=O)N(c1ccccc1)C1CCN(CCc2ccccc2)CC1
inactive: activity, negative = cell killing (astro) -17.1% [at 45.9 µM]

CCC(=O)N(c1ccccc1)C1(COC)CCN(CCn2nnn(CC)c2=O)CC1
inactive: activity change, negative = cytotoxicity (UISO) -4.93% | activity change, negative = cytotoxicity (WaGa) -9.07% | activity change, negative = cytotoxicity (C33A) 1.21% | activity change, negative = cytotoxicity (CAOV3) 1.48% | activity change, negative = cytotoxicity (CASKI) 7.69% | activity change, negative = cytotoxicity (Es-2) 2.01% | activity change, negative = cytotoxicity (HeLa) -15.8% | activity change, negative = cytotoxicity (Hek293T) -3.21% [at 116 µM] | activity change, negative = cytotoxicity (JEG-3) 6.61% | activity change, negative = cytotoxicity (OV90) -17.1% [at 116 µM] | activity change, negative = cytotoxicity (PA-1) 8.05% | activity change, negative = cytotoxicity (Tov-21-G) -0.614% | activity change, negative = cytotoxicity (Tov112D) -7.23% | Potency [1] | activity, negative = cell killing (astro) -5.11%

CCC(=O)N(c1ccccc1)C1(COC)CCN(CCc2cccs2)CC1
inactive: activity change, negative = cytotoxicity (C33A) -16.7% | activity change, negative = cytotoxicity (CAOV3) -14.7% | activity change, negative = cytotoxicity (CASKI) 0.916% | activity change, negative = cytotoxicity (Es-2) -0.476% | activity change, negative = cytotoxicity (HeLa) -26% | activity change, negative = cytotoxicity (JEG-3) -4.51% | activity change, negative = cytotoxicity (PA-1) -4.56% | activity change, negative = cytotoxicity (SKOV3) -8.27% [at 116 µM] | activity change, negative = cytotoxicity (Tov-21-G) -1.78% | activity change, negative = cytotoxicity (Tov112D) -22.9% | activity, negative = cell killing (astro) -29%

CN(CCCl)CCCl
inactive: activity change, negative = cytotoxicity (C33A) -6.64% [at 57.5 µM] | activity change, negative = cytotoxicity (CASKI) 2.38% [at 57.5 µM] | activity change, negative = cytotoxicity (Es-2) 8.75% [at 57.5 µM] | activity change, negative = cytotoxicity (HeLa) -4.23% [at 57.5 µM] | activity change, negative = cytotoxicity (Hek293T) -2.98% | activity change, negative = cytotoxicity (JEG-3) -27.3% [at 57.5 µM] | activity change, negative = cytotoxicity (OV90) 12.6% | activity change, negative = cytotoxicity (PA-1) -18.8% [at 57.5 µM] | activity change, negative = cytotoxicity (SKOV3) 0% | activity change, negative = cytotoxicity (Tov-21-G) -11.1% [at 57.5 µM] | activity change, negative = cytotoxicity (Tov112D) 12.9% [at 57.5 µM] | max response [2] -22.1% | activation [3] -4.67%

O=[N+]([O-])C(Cl)(Cl)Cl
inactive: max response [2] 3.17% and 1% | activation [3] -4.42% and 8.31%
